From patent US4324788A, “Alkoxyalkylidenhydrazinopridazines and process for their preparation” (I.S.F. S.p.A., priority 1979, dated 1982)

Columns and labels:
[1] = test system: guinea-pig isolated atria; settings: isoprenaline agonist, product at 10^-4 M
[2] = in vivo; settings: mouse, ip

CC(CCc1ccccc1)NCC(O)c1ccc(O)c(C(N)=O)c1 (centres unmarked) [Labetalol, reference compound]
DR4 (dose ratio of agonist EC50 in the presence and in the absence of the product) [1]: 12590 | LD50 [2]: 300 mg/kg
